Source: patent publication USRE38551E1, “Anticonvulsant enantiomeric amino acid derivatives” (priority 1996, dated 2004)
Like-named read-outs stand apart in the source and are kept apart here. Marks after values point to notes of the source that are not given here.

Test system: Crl:CD BR Charles River rats
Protocol: II. Five groups of Crl:CD® BR Charles River rats were each exposed to BAMP or a control substance (0.5% methylcellulose [400 Cps] aqueous solution in distilled water) according to the following dosage schedule:
Group 1—vehicle control (10 males, 10 females), 0 mg/kg/day
Group 2—low (10 males, 10 females), 10 mg/kg/day
Group 3—mid low (10 males, 10 females), 30 mg/kg/day
Group 4—mid high (10 males, 10 females), 100 mg/kg/day
Group 5—high (10 males, 10 females), 300 mg/kg/day
Exposure was by oral gavage, once daily, for a period of at least 30 consecutive days, after which all animals were sacrificed for pathologic evaluation.
All animals were weighed once prior to initiation of dosing and weekly thereafter. Food-fasted (overnight) blood samples for clinical chemistry and hematology were collected at termination. Blood samples were collected from the orbital venous plexus using carbon dioxide (mixed with oxygen) as an anesthetic.
All animals were sacrificed, at the appropriate time, by exsanguination, under barbiturate anesthesia, and all were subjected to a necropsy examination.
Clinical observations were reviewed at necropsy, and all grossly observed abnormalities were entered directly into the computerized data collection system. Adrenals, brain with brainstem, heart, kidneys, liver, ovaries, pituitary, testes with epididymides, and thyroid with parathyroids were weighted from each animal. The pituitary and thyroid with parathyroids were weighed after fixation and all of the other organs were weighed at the time of necropsy.
As required by the protocol, histologic evaluations were conducted on liver only from all animals of Groups 1 (control) and 5 (high). All histologic findings were entered directly into the computerized data capture system. Lesions were graded as to relative severity or degree of involvement (1=minimal, 2=slight, 3=moderate, 4=moderately severe, 5=severe). In general, minimal represents the least consistently recognizable degree of any given histoniorphologic alteration, while severe would represent the most extreme degree reasonably possible, with the other three grades occupying a continuum between the two extremes. The grades are subjective, comparative evaluations, based on morphology alone and are not intended by themselves to imply any degree of functional impairment.

For `COC[C@@H](NC(C)=O)C(=O)NCc1ccccc1` [Ex. 1, 2, (R)-N-Benzyl-2-Acetamide-3-methoxypropionamide], the “LIVER ORGAN WEIGHT, mean” value (female, group 2, 10 mg/kg/day, 30 days oral) was 6.91 g, the “LIVER ORGAN WEIGHT, mean” value (female, group 3, 30 mg/kg/day, 30 days oral) was 6.71 g and the “LIVER ORGAN WEIGHT, mean” value (female, group 4, 100 mg/kg/day × 30 days oral) was 7.88* g. The “LIVER ORGAN WEIGHT, mean” value (female, group 5, 300 mg/kg/day × 30 days oral) was 7.88* g, the “LIVER ORGAN WEIGHT, mean” value (male, group 2, 10 mg/kg/day, 30 days oral) was 11.10 g and the “LIVER ORGAN WEIGHT, mean” value (male, group 3, 30 mg/kg/day, 30 days oral) was 11.48 g. The “LIVER ORGAN WEIGHT, mean” value (male, group 4, 100 mg/kg/day × 30 days oral) was 11.79 g and the “LIVER ORGAN WEIGHT, mean” value (male, group 5, 300 mg/kg/day × 30 days oral) was 14.45* g.
